From PubChem BioAssay AID648 (SRMLSC, 2007)
This is a selection; strong and weak results do not stand in their true shares. Active and inactive are the calls of the source.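 How the source made its calls: active means viability at or below 30%; inactive means viability above 30%.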

test: inhibitors of HUVEC proliferation, primary screen, cell-based, 384-well (AID 648); conditions: CellTiter-Glo luminescence, 72 h, hits give low values, screened at 10 µM (by protocol);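 further: 100% = median luminescence of DMSO-only cell control wells on each plate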

| Structure (SMILES) | viability |
| --- | --- |
| N/C(=N\O)c1c(N)no[n+]1[O-] | inactive: 92.7% |
| c1ccc(CN2CCC(Nc3ccccc3)CC2)cc1 | inactive: 104% |
| Fc1ccccc1NC1CCN(Cc2ccccc2)CC1 | inactive: 87.7% |
| CCC(CO)(C(=O)OC1CN2CCC1CC2)c1ccccc1 (centres undefined) | inactive: 96% |
| CCOc1ncccc1C(=O)NCC1(N2CCOCC2)CCCCC1 | inactive: 101% |
| O=C(OC1CN2CCC1CC2)C1c2ccccc2Oc2ccccc21 (centres undefined) | inactive: 93.3% |
| O=C(NCC1(N2CCOCC2)CCCCC1)c1cc2ccccc2o1 | inactive: 99.7% |
| O=C(NCC1(N2CCOCC2)CCCCC1)c1cc(=O)[nH]c2ccccc12 | inactive: 93.2% |
| N#CC1(Nc2ccccc2)CCN(CCc2ccccc2)CC1 | inactive: 101% |
